Measured values reported in ChEMBL document CHEMBL1143255, “Standard protecting groups create potent and selective kappa opioids: salvinorin B alkoxymethyl ethers” (Bioorg Med Chem, 2008).

Chains of the proteins cited; added tags and fusions are not shown. Lines headed by an entry give the natural chain unless they say otherwise; changes in a name come on top.
UniProt P33535, whole entry, looked up: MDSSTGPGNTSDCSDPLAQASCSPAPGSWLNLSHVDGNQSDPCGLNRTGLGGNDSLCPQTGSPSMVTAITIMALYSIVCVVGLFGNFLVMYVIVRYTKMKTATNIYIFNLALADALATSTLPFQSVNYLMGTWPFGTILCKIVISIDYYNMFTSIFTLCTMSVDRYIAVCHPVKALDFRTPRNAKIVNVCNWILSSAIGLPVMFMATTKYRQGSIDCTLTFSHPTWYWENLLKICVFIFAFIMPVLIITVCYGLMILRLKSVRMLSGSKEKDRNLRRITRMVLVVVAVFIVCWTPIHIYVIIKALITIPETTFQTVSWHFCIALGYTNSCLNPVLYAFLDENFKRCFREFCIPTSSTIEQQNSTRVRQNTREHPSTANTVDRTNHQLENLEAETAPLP
UniProt P32300, whole entry, looked up: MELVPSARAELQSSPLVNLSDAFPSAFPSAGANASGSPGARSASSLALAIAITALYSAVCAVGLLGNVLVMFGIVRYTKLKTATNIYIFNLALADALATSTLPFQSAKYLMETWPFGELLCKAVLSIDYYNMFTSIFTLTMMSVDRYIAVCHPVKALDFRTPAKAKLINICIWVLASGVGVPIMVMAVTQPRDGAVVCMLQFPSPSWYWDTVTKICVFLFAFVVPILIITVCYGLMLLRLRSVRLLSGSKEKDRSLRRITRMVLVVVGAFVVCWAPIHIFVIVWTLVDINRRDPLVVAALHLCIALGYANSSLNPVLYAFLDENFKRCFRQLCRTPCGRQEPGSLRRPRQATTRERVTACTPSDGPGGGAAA
UniProt P41145: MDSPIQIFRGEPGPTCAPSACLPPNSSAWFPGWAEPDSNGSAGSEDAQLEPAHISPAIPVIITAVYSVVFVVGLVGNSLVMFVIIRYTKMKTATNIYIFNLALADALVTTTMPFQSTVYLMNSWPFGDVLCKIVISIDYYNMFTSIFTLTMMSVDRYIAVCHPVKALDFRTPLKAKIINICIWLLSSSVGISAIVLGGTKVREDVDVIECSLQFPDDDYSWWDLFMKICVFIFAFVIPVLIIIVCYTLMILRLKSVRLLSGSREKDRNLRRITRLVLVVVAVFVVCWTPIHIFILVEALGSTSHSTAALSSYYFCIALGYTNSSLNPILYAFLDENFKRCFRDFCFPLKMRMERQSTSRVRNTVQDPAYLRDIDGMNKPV

Key:
Mu-type opioid receptor = Mu-type opioid receptor (Rattus norvegicus, UniProt P33535); experiment: Displacement of [3H]diprenorphine from rat mu opioid receptor expressed in CHO cells
[1] = target: Delta-type opioid receptor (Mus musculus, UniProt P32300); experiment: Displacement of [3H]diprenorphine from mouse delta opioid receptor expressed in CHO cells
[2] = target: T1, Kappa-type opioid receptor (Homo sapiens, UniProt P41145); experiment: Displacement of [3H]diprenorphine from human kappa opioid receptor expressed in CHO cells
[3] = target: T1, Kappa-type opioid receptor; experiment: Agonist activity at human kappa opioid receptor expressed in CHO cells assessed as stimulation of [35S]GTPgammaS binding

| Compound | Ki (Mu-type opioid receptor) | Ki [1] | Ki [2] | EC50 [3] |
| --- | --- | --- | --- | --- |
| COC(=O)[C@@H]1C[C@H](OC(C)=O)C(=O)[C@H]2[C@@]1(C)CC[C@H]1C(=O)O[C@H](c3ccoc3)C[C@]21C | > 1000 nM | > 1000 nM | – | – |
| CN(C(=O)Cc1ccc(Cl)c(Cl)c1)C1CCCCC1N1CCCC1 (stereo not drawn) | > 1000 nM | > 1000 nM | – | – |
| COCO[C@H]1C[C@@H](C(=O)OC)[C@]2(C)CC[C@H]3C(=O)O[C@H](c4ccoc4)C[C@]3(C)[C@H]2C1=O | > 1000 nM | > 1000 nM | 0.6 nM | 0.4 nM |
